# Reference: ChEMBL document CHEMBL1155335, “Studies towards topical selective beta2-adrenoceptor agonists with a long duration of action” (Bioorg Med Chem Lett, 2009)
# Tested on: Cavia porcellus
# Test: Bronchoprotective activity in intratracheally dosed guinea pig assessed as inhibition of acetylcholine-induced increase in pulmonary resistance after 5 hrs
# Assay type: functional, organism-based
smiles,measurement,value
COc1ccc(CC(C)NCC(O)c2ccc(O)c(NC=O)c2)cc1 (stereo unspecified),Activity,Dose-dependent effect
